Bioassay records deposited in PubChem BioAssay by National Center for Advancing Translational Sciences (NCATS).
Hits are enriched below; roughly 0.53% of the tested compounds scored in any of these assays.
Giardia kill = kills Giardia lamblia; Giardia lamblia trophozoite viability; activity change, % at 7.66 µM, hits read low; 340,000 tested, 0.15% active; AID 540267; in the data active = activity change below about -80%; inconclusive = between about -30% and that limit;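 also: parasites exposed to compound for two days anaerobically before the ATP read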
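Media and compound were dispensed first, then trophozoites at 100 cells/well; plates sat 48 hrs at 37 deg C without oxygen before ATP luminescence reagent was added and read after 15-30 min at room temperature.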
MmCpn inh = M. maripaludis TRiC chaperonin inhibition; Potency, µM (top dose mostly 76.9 µM), actives largely listed as inhibitors; purified Mm-Cpn ATPase, ADP Transcreener TR-FRET; 330,000 tested, 0.031% active; active = well fitted inhibition curve with a large enough effect; inconclusive = small, poorly fitted or top-dose-only effect; also: nearly all actives have a fitted effect of over 80% in size
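ATPase turnover read by TR-FRET ADP competition (Eu cryptate antibody/ADP-d2, 665/590 nm): 10uM ATP final, 25nM Mm-CPN final, 30 min 37degC after 10-min compound preincubation, pH 7.4 Tris/KCl/MgCl2/DTT buffer.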
Rango dissoc inh = inhibitors of RanGTP-induced Rango-importin beta complex dissociation. O95149+P62826. 340,000 tested, 0.071% active. Biochemical FRET Rango-importin beta, RanGTP-induced dissociation. Potency, µM (series often up to 46.1 µM). AID 540253; also: nearly all actives have a fitted effect of over 45% in size
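Compounds preincubate 5 min with complex of recombinant Rango and importin beta in PBS with 1 mM DTT. Ran (0.6 uM) loaded with 2 mM GTP plus 0.2 uM RCC1 starts dissociation; FRET is recorded 45 min later.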
Rango complex inh = inhibitors of Rango-importin beta complex formation. Q14974. Rango CFP/YFP FRET sensor + importin beta, 45 min. Potency, µM (highest dose often 92.2 µM). 340,000 tested, 0.031% active. AID 540263; also: nearly all actives have a fitted effect of over 15% in size
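FRET biosensor Rango (snurportin 1 IBB between N-terminal EYFP and C-terminal Cerulean), 50 nM in PBS/1 mM DTT/0.02% Tween-20/0.1% BSA, preincubated 5 min RT with compound; 0.125 microM importin beta added, 45 min RT, CFP/YFP FRET ratio read.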
CCT chaperon mod = cytosolic chaperonin activity modulation. purified chaperonin ATPase assay, HTRF ADP detection, 30 min. 360,000 tested, 0.3% active. AID 651819. activity change, % (no concentration beside the values), hits read low; in the data active = activity change below about -30%
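We incubate TRiC, 40 or 20 nM final, with library compounds at 76 uM and 10 uM ATP for 30 min at 37 °C. ADP formed is detected with Transcreener HTRF reagents after 30 min at room temperature.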
Hits are given with their value; n = inactive; u = inconclusive; x = no result given. Unless noted, calls follow the shape of the full dose curve.

SMILES | Giardia kill | MmCpn inh | Rango dissoc inh | Rango complex inh | CCT chaperon mod
COc1ccc(C(=O)Nc2ccnn2C2CCN(CC3CC=CCC3)CC2)cc1 (configuration not stated) | n | n | n | n | n
COc1ccc(C(=O)Nc2ccnn2C2CCN(Cc3ccccn3)CC2)cc1 | n | n | n | u | -35.3
O=C(Nc1ccnn1C1CCN(CC2CC=CCC2)CC1)c1ccccc1 (configuration not stated) | n | n | n | n | -53.8
COc1ccc(C(=O)Nc2ccnn2C2CCN(Cc3cnn(C)c3)CC2)cc1 | n | n | n | n | n
O=c1[nH]cc(CCc2ccccc2)c2ncncc12 | n | x | x | x | x
CC1(C)C2CCC1(C)C(OCCNCCOC(=O)Nc1ccccc1)C2 (configuration not stated) | n | n | n | n | -39.7
O=C(CSc1nnnn1Cc1ccccc1)N1CCN(c2ccccc2)CC1 | n | n | n | n | -37.4
Cc1cc2c(s1)c1c(n2C)C(=O)N(Cc2ccccc2F)C1 | x | n | x | x | x
Cc1cc(C)cc(OCC(=O)N/N=C/c2ccc([N+](=O)[O-])o2)c1 | -87.8 | n | n | n | n
COc1ccccc1OCC(=O)N/N=C/C=C/c1ccc([N+](=O)[O-])o1 | u | n | n | n | n
Cc1ccccc1OCC(=O)N/N=C/c1ccc([N+](=O)[O-])o1 | -92.9 | n | 16.4µM | u | n
COc1ccc(CCNC(=O)C(=O)NCC2CCCN2S(=O)(=O)c2ccccc2)cc1OC (configuration not stated) | n | n | n | n | n
CCN1CCCC1CNC(=O)C(=O)NCCc1ccc(OC)c(OC)c1 (configuration not stated) | n | n | n | n | -33.6
Cc1onc(-c2ccccc2)c1C(=O)Nc1ccccc1N1CCOCC1 | n | n | n | n | n
Cc1noc(C)c1C(=O)Nc1ccccc1N1CCOCC1 | n | n | n | n | -30.3
Cc1nnc(Sc2cc(NCCO)c([N+](=O)[O-])c3nonc23)s1 | n | n | n | n | -57.6
Cc1ccc(OCC(=O)c2cc(C)n(-c3cc(C)on3)c2C)c([N+](=O)[O-])n1 | n | n | n | n | n
COc1ccc(-n2c(C)cc(C(=O)COc3ccc(C)nc3[N+](=O)[O-])c2C)cc1 | -80.8 | n | n | n | n
O=C(c1ccc2c(c1)OCCO2)N1CCN(c2nc(-c3cccs3)nc3ccccc23)CC1 | n | x | x | x | x
COc1ccc([N+](=O)[O-])cc1NC(=O)C1(c2ccc(OC)c(OC)c2)CCOCC1 | n | n | n | n | -93.5
Cc1ccc(C(=O)NCC(=O)OCC(=O)c2cccc3ccccc23)cc1 | n | x | x | x | x
O=[N+]([O-])c1cccn2cc(-c3ccc(Br)cc3)nc12 | -98.9 | n | n | n | n
CCOC(=O)c1cc(-c2ccccc2)sc1NC(=O)C(C)(C)C | n | n | n | n | -30.9
Cc1ccc2nc(-c3ccc(NS(C)(=O)=O)cc3)cc(-c3ccccc3)c2c1 | u | n | 8.91µM | u | n
CCS(=O)(=O)Nc1ccc(-c2cc(-c3ccccc3)c3cc(C)ccc3n2)cc1 | u | n | u | u | n
SMILES | Giardia kill | MmCpn inh | Rango dissoc inh | Rango complex inh | CCT chaperon mod
CCCC/C=C/[C@H](C)[C@@](C)(COC(=O)c1ccc(Br)cc1)Cc1ccccc1 | n | x | x | x | x
CCC(=O)Nc1sc2c(c1C(=O)OC)CCN(Cc1ccccc1)C2 | n | n | 41.1µM | u | n
CCSc1nnc(NC(=O)C2CCN(C(=O)c3ccco3)CC2)s1 | n | x | x | x | x
O=C1NC(=S)N/C1=C\c1ccc(N2CCOCC2)cc1 | n | n | 8.2µM | u | n
O=C1NC(=S)NC1=Cc1ccc(O)cc1 | n | x | n | u | n
COc1ccc(NC(=O)CC2C(=O)NCCN2C(=O)c2ccc(N(C)C)cc2)cc1 (configuration not stated) | n | n | n | u | -49.9
COc1ccccc1-c1nc(-c2ccccn2)no1 | u | n | n | n | n
COc1ccc(-c2nc(-c3ccccn3)no2)cc1 | -81.2 | n | n | n | n
C=CCN=C1N[C@@H](c2ccc(Br)cc2)C(C(=O)OC)=C(C)N1Cc1ccccc1 | x | n | x | x | x
COc1ccc(N=NC2=C(O)CC(C)(C)CC2=O)c(OC)c1 | n | n | n | 51.7µM | n
COc1ccc(N=NC2=C(O)CC(C)(C)CC2=O)cc1 | n | n | n | n | n
CC(C)(C)c1nnc(NC(=O)C2CCN(C(=O)c3ccccc3)CC2)s1 | n | x | x | x | x
